This series concerns activatable antibodies comprising substrates selected for cleavage by uPA and matriptase (7 substrates tested), having the 3954 mask and C225v5 variant of cetuximab.

These results are taken from patent US20240150402A1.

As to u-plasminogen activator (uPA), the kcat/KM entry is reported as “kcat/KM values ranging from about 400 to 5,000 M^-1s^-1 for uPA”.
